Reference: PubChem BioAssay AID2806 (Sanford-Burnham Center for Chemical Genomics, 2010)
The entries are a selection whose mix differs from that of the whole data set. Activity calls are given as the source filed them.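 The calls were made as follows: active = inhibition of at least 40% at 10 µM in the primary screen; inactive = the rest.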

Each compound was assayed on intestinal alkaline phosphatase [Mus musculus] (assay: inhibitors of mouse IAP, primary screen, biochemical, luminescence, uHTS (AID 2806;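 also: plate controls were DMSO with enzyme for no effect and no enzyme wells for full effect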)). Conditions: purified mouse IAP, CDP-Star luminescence, 30 min; at 10 µM; stronger effect = higher value.

Structure (SMILES) | inhibition
N#Cc1ccc(C(=O)NCC2(N3CCCCC3)CCCCC2)cc1 | inactive: 0.8%
CC(C)(C)OC(=O)N1CCC(N(C(=O)c2ccccc2)c2ccc(Cl)cc2)CC1 | inactive: -1.6%
CN(C)C1(CNC(=O)c2cccc(C#N)c2)CCCCC1 | inactive: -2.6%
CCCN1CCC(Nc2cc(OC)cc(OC)c2)CC1 | inactive: 3.4%
c1ccc(CN2CCC(Nc3ccccc3)CC2)cc1 | inactive: 5.8%
COc1cc(C(=O)NCC2(N3CCOCC3)CCCCC2)cc(OC)c1C | inactive: -10.6%
O=C(NCC1(N2CCOCC2)CCCCC1)c1cc(Br)ccc1Cl | inactive: -10.1%
COc1ccc(C(=O)NCC2(N3CCOCC3)CCCCC2)cc1OC | inactive: -9.7%
CCOC(=O)N1CCC(Nc2ccc(C)cc2)CC1 | inactive: 1.7%
N/C(=N\O)c1c(N)no[n+]1[O-] | inactive: -4.6%
O=C(OC1CN2CCC1CC2)C1c2ccccc2C=Cc2ccccc21 (configuration not stated) | inactive: 1.7%
CCc1cc(C(=O)NCC2(N3CCCCC3)CCCCC2)sc1C | inactive: 0.3%
CN1CCC(Nc2ccc(F)c(Cl)c2)CC1 | inactive: -5.4%
CCOc1ncccc1C(=O)NCC1(N2CCOCC2)CCCCC1 | inactive: -3.5%
O=C(O)C1(Nc2ccccc2)CCN(Cc2ccccc2)CC1 | inactive: 9%
CC(C)(C)OC(=O)N1CCC(Nc2ccccc2)CC1 | inactive: -0.7%
CCCOc1ccc(C(=O)NCC2(N(C)C)CCCCC2)cc1 | inactive: -7.3%
COc1cc(OC)cc(C(=O)NCC2(N3CCOCC3)CCCCC2)c1 | inactive: 5.9%
COc1cccc(C(=O)N(c2cc(C)cc(C)c2)C2CCN(C(=O)OC(C)(C)C)CC2)c1 | inactive: 1.3%
CCC(CO)(C(=O)OC1CN2CCC1CC2)c1ccccc1 (configuration not stated) | inactive: -4.5%
CN1CCC(Nc2ccc(Cl)cc2)CC1 | inactive: -5.4%
CCCOc1ccc(C)cc1CN(CCCl)CCCl | inactive: 3%
COc1cc(OC)cc(C(=O)NCC2(N3CCCCC3)CCCCC2)c1 | inactive: -7.8%

Structure (SMILES) | inhibition
Fc1ccccc1NC1CCN(Cc2ccccc2)CC1 | inactive: -3.3%
Cc1ccc(C(=O)NCC2(N3CCCCC3)CCCCC2)o1 | inactive: 8.3%
CCN1CCC(Nc2cccc(F)c2)CC1 | inactive: 12.5%
CN(C)c1ccc(C(=O)NCC2(N3CCCCC3)CCCCC2)cc1 | inactive: -0.3%
O=C(NCC1(N2CCCCC2)CCCCC1)c1ccco1 | inactive: -3.6%
CCOc1ccc(C)cc1CN(CCCl)CCCl | inactive: -10.3%
COc1ccc(NC2CCN(CCc3ccccc3)CC2)c(OC)c1 | inactive: -5%
CCOC(=O)N1CCC(Nc2ccc(F)cc2)CC1 | inactive: -4.4%
O=C(NCC1(N2CCCCC2)CCCCC1)c1ccc(F)cc1 | inactive: -0.6%
CCCCOc1ccc(C(=O)NCC2(N3CCOCC3)CCCCC2)cc1 | inactive: -4%
Cc1ccc(OCC(C)C)c(CN(CCCl)CCCl)c1 | inactive: 0.8%
CCOC(=O)N1CCC(Nc2cccc(C)c2)CC1 | inactive: -9.7%
CC(C)(C)OC(=O)N1CCC(N(C(=O)c2ccccc2)c2ccc(F)cc2)CC1 | inactive: -3.1%
COc1ccc(C(=O)NCC2(N3CCCCC3)CCCCC2)c(OC)c1OC | inactive: -9.3%
COc1ccc(C(=O)NCC2(N3CCCCC3)CCCCC2)cc1 | inactive: 2.2%
O=C(NCC1(N2CCCCC2)CCCCC1)c1cccs1 | inactive: 10.9%
O=C(NCC1(N2CCCCC2)CCCCC1)c1ccc(=O)[nH]c1 | inactive: 4.6%
CSc1ccccc1C(=O)NCC1(N2CCCCC2)CCCCC1 | inactive: -0.9%
Cc1cc(C)cc(N(C(=O)c2ccccc2)C2CCN(C(=O)OC(C)(C)C)CC2)c1 | inactive: -5%
O=C(NCC1(N2CCCCC2)CCCCC1)c1ccc(Cl)nc1 | inactive: -12.3%
O=C(NCC1(N2CCOCC2)CCCCC1)c1cc2ccccc2o1 | inactive: 7.7%
COc1ccc(Cl)cc1C(=O)NCC1(N2CCOCC2)CCCCC1 | inactive: 4.6%
O=C(OC1CN2CCC1CC2)C1c2ccccc2Oc2ccccc21 (configuration not stated) | inactive: 7.7%

Structure (SMILES) | inhibition
N#CC1(Nc2ccccc2)CCN(Cc2ccccc2)CC1 | inactive: -2.5%
O=C(NCC1(N2CCCCC2)CCCCC1)c1ccc(Cl)s1 | inactive: -0.8%
CCOC(=O)N1CCC(Nc2ccc(OC)cc2)CC1 | inactive: -12.4%
CC(C)c1ccc(NC2CCN(C(=O)OC(C)(C)C)CC2)cc1 | inactive: 0.4%
CN(C)c1cccc(C(=O)NCC2(N3CCCCC3)CCCCC2)c1 | inactive: -10.2%
COc1ccc(CN(CCCl)CCCl)cc1Cl | inactive: 3.9%
O=C(NCC1(N2CCOCC2)CCCCC1)c1cc(F)c(F)cc1Cl | inactive: 0.7%
COc1cc(OC)c(C(=O)NCC2(N(C)C)CCCCC2)cc1OC | inactive: -0.9%
O=C(NCC1(N2CCCCC2)CCCCC1)c1cncc(Br)c1 | inactive: 6.4%
CN1CCC(Nc2cccc(F)c2)CC1 | inactive: -0.2%
O=C(NCC1(N2CCCCC2)CCCCC1)c1ccc(OC(F)F)cc1 | inactive: 2.5%
N#CC1(Nc2ccccc2)CCN(CCc2ccccc2)CC1 | inactive: 3.7%
CCN1CCC(Nc2ccc(Cl)cc2)CC1 | inactive: 1.1%
CSc1ccc(C(=O)NCC2(N3CCOCC3)CCCCC2)cc1 | inactive: -7.1%
O=C(NCC1(N2CCCCC2)CCCCC1)c1cccc([N+](=O)[O-])c1 | inactive: 2.2%
O=C(NCC1(N2CCCCC2)CCCCC1)c1cccc(C(F)(F)F)c1 | inactive: -2.7%
COc1cc(C(=O)NCC2(N3CCCCC3)CCCCC2)ccc1OC(F)F | inactive: -0.2%
O=C(NCC1(N2CCOCC2)CCCCC1)c1cc(=O)[nH]c2ccccc12 | inactive: -8.5%
CN1CCN(CCOC(=O)C(O)(c2ccccc2)c2ccccc2)CC1 | inactive: -8.4%
CC(C)c1ccc(C(=O)NCC2(N3CCOCC3)CCCCC2)cc1 | inactive: -2.4%
COc1ccc(NC2CCN(C(=O)OC(C)(C)C)CC2)cc1 | inactive: 4.6%
